Reference: patent US6462038B1, “Androgen receptor modulator compounds and methods” (Ligand Pharmaceuticals, Inc., priority 1999, dated 2002)

Amino acid sequences for entries named in this document (tags omitted). A change or cut given only in a name is not applied to a line headed by its entry.
UniProt P10275: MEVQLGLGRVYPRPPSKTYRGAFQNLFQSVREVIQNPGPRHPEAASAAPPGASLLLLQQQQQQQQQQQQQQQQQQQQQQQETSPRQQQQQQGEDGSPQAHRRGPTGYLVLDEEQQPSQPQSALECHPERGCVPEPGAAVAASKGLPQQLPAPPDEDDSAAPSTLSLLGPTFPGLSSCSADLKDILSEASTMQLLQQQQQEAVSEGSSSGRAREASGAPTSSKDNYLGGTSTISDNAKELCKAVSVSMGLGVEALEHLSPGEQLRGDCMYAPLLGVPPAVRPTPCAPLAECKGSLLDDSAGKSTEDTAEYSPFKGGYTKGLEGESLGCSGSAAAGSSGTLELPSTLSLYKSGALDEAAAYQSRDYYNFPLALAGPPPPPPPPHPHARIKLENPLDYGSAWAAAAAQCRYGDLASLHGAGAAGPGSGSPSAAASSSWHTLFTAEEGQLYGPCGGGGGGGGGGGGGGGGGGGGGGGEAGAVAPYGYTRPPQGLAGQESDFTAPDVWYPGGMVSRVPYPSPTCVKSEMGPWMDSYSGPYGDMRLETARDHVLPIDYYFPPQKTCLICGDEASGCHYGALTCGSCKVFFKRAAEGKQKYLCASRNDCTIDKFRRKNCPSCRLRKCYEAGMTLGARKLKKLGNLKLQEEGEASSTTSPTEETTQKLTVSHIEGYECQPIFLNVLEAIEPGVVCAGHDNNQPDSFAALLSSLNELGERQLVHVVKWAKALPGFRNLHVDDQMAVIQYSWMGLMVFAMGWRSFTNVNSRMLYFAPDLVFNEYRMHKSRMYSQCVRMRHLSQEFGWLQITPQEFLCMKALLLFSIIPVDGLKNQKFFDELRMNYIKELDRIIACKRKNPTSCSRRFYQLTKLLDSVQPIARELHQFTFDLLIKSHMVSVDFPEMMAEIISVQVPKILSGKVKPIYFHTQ

Assays:
hAR [1] = molecular target: T1, hAR (Homo sapiens, UniProt P10275); experiment: co-transfection assay, AR antagonist (in presence of DHT), CV-1 cells; assay type: cell-based; conditions: hAR in CV-1 cells; maximal inhibition, DHT at EC50
T1 construct: expressed in transfected cells; host or cells: CV-1 cells (African green monkey kidney fibroblasts)

hAR [2] = molecular target: T1, hAR; experiment: co-transfection assay, AR agonist, CV-1 cells; assay type: cell-based; conditions: hAR in CV-1 cells; relative to maximum LUC production by reference agonist

| SMILES | AR Antagonist CV-1 Cells Efficacy (%) (hAR [1]) | AR Agonist CV-1 Cells Efficacy (%) (hAR [2]) |
| --- | --- | --- |
| CC1CN(CC(F)(F)F)c2cc3c(C(F)(F)F)cc(=O)[nH]c3cc2O1 (racemic) [Compound 114, (±)-1,2,3,6-Tetrahydro-3-methyl-1-(2,2,2-trifluoroethyl)-9-(trifluoromethyl)-7H-[1,4]oxazino[3,2-g]quinolin-7-one] | na (na = not active (i.e. efficacy of < 20 and potency of > 10,000 nM for the cotransfection assay, and Ki > 1000 nM for the binding assay)) | 94 |
| CC1CN(C)c2cc3c(C(F)(F)F)cc(=O)[nH]c3cc2O1 (racemic) [Compound 117, (±)-1,2,3,6-Tetrahydro-1,3-dimethyl-9-(trifluoromethyl)-7H-[1,4]oxazino[3,2-g]quinolin-7-one] | na (na = not active (i.e. efficacy of < 20 and potency of > 10,000 nM for the cotransfection assay, and Ki > 1000 nM for the binding assay)) | 36 |
| CCC1CN(CC(F)(F)F)c2cc3c(C(F)(F)F)cc(=O)[nH]c3cc2O1 (racemic) [Compound 118, (±)-3-Ethyl-1,2,3,6-tetrahydro-1-(2,2,2-trifluoroethyl)-9-(trifluoromethyl)-7H-[1,4]oxazino[3,2-g]quinolin-7-one] | na (na = not active (i.e. efficacy of < 20 and potency of > 10,000 nM for the cotransfection assay, and Ki > 1000 nM for the binding assay)) | 76 |
| CCC1CN(C)c2cc3c(C(F)(F)F)cc(=O)[nH]c3cc2O1 (racemic) [Compound 119, (±)-3-Ethyl-1,2,3,6-tetrahydro-1-methyl-9-(trifluoromethyl)-7H-[1,4]oxazino[3,2-g]quinolin-7-one] | na (na = not active (i.e. efficacy of < 20 and potency of > 10,000 nM for the cotransfection assay, and Ki > 1000 nM for the binding assay)) | 20 |
| CC1CN(CC(F)(F)F)c2cc3c(C(F)(F)F)cc(=O)[nH]c3cc2O1 (single isomer, unassigned; (+)) [Compound 116, (+)-1,2,3,6-tetrahydro-3-methyl-1-(2,2,2-trifluoroethyl)-9-(trifluoromethyl)-7H-[1,4]oxazino[3,2-g]quinolin-7-one] | 35% | 24 |
| CC1CN(CC(F)(F)F)c2cc3c(C(F)(F)F)cc(=O)[nH]c3cc2O1 (single isomer, unassigned; (-)) [Compound 115, (−)-1,2,3,6-Tetrahydro-3-methyl-1-(2,2,2-trifluoroethyl)-9-(trifluoromethyl)-7H-[1,4]oxazino[3,2-g]quinolin-7-one] | na (na = not active (i.e. efficacy of < 20 and potency of > 10,000 nM for the cotransfection assay, and Ki > 1000 nM for the binding assay)) | 82 |
| CN1CCOc2cc3[nH]c(=O)cc(C(F)(F)F)c3cc21 [Compound 101, 1,2,3,6-Tetrahydro-1-methyl-9-(trifluoromethyl)-7H-[1,4]oxazino[3,2-g]quinolin-7-one] | na (na = not active (i.e. efficacy of < 20 and potency of > 10,000 nM for the cotransfection assay, and Ki > 1000 nM for the binding assay)) | 56 |
| CCN1CCOc2cc3[nH]c(=O)cc(C(F)(F)F)c3cc21 [Compound 103, 1-Ethyl-1,2,3,6-tetrahydro-9-(trifluoromethyl)-7H-[1,4]oxazino[3,2-g]quinolin-7-one] | – | 92 |
| O=c1cc(C(F)(F)F)c2cc3c(cc2[nH]1)OCCN3CC(F)(F)F [Compound 105, 1,2,3,6-Tetrahydro-1-(2,2,2-trifluoroethyl)-9-(trifluoromethyl)-7H-[1,4]oxazino[3,2-g]quinolin-7-one] | na (na = not active (i.e. efficacy of < 20 and potency of > 10,000 nM for the cotransfection assay, and Ki > 1000 nM for the binding assay)) | 88 |
| CCCN1CCOc2cc3[nH]c(=O)cc(C(F)(F)F)c3cc21 [Compound 111, 1,2,3,6-Tetrahydro-1-propyl-9-(trifluoromethyl)-7H-[1,4]oxazino[3,2-g]quinolin-7-one] | na (na = not active (i.e. efficacy of < 20 and potency of > 10,000 nM for the cotransfection assay, and Ki > 1000 nM for the binding assay)) | 88 |
| CC(C)CN1CCOc2cc3[nH]c(=O)cc(C(F)(F)F)c3cc21 [Compound 112, 1,2,3,6-Tetrahydro-1-isobutyl-9-(trifluoromethyl)-7H-[1,4]oxazino[3,2-g]quinolin-7-one] | na (na = not active (i.e. efficacy of < 20 and potency of > 10,000 nM for the cotransfection assay, and Ki > 1000 nM for the binding assay)) | 80 |
